1 compound from ChEMBL document CHEMBL5046286, “Discovery of MAP855, an Efficacious and Selective MEK1/2 Inhibitor with an ATP-Competitive Mode of Action” (J Med Chem, 2022) can be followed below.

Chains of the proteins cited; added tags and fusions are not shown.
UniProt Q02750, whole entry: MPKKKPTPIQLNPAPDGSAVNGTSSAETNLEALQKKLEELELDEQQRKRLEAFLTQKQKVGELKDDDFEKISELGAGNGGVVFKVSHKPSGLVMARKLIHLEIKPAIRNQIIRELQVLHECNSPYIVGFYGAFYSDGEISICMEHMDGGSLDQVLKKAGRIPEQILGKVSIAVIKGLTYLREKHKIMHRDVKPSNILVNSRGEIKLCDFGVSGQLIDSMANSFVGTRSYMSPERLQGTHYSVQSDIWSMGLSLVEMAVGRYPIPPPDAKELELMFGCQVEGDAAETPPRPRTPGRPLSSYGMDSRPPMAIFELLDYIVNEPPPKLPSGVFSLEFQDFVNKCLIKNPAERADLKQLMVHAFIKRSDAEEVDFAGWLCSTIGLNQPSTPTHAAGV

The target of the experiment is Dual specificity mitogen-activated protein kinase kinase 1 (Homo sapiens, UniProt Q02750). The experiment can be described thus: Inhibition of full-length human MEK1 by TR-FRET assay. (In general: Time-resolved FRET reads energy transfer from a long-lived donor to a nearby acceptor.)

Broadly, the IC50 is the point on the concentration scale where inhibition reaches its midpoint. High values mean a need for much substance, low ones inhibition by little substance.

`N#CCc1ccc(-n2cnc3cnc4cc(F)c(-c5ccc(Oc6ccccn6)cc5Cl)cc4c32)cc1` had an IC50 of 0.1 µM.
